## Measured affinities in a library of Ab-14 heavy chain variants

Values reported by Li et al. 2023, doi:10.1038/s41467-023-39022-2 (FLAb copy).

Antigen: PDVDLGDISGINAS, a 14-residue peptide of the SARS-CoV-2 spike HR2 region.

Parent scFv Ab-14: VH joined to VL by the linker GGGGSGGGGSGGGGS. Changes lie in the heavy chain CDRs alone.
VH: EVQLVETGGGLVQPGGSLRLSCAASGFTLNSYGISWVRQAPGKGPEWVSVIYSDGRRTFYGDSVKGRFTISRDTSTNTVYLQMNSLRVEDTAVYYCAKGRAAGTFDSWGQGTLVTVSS
VL: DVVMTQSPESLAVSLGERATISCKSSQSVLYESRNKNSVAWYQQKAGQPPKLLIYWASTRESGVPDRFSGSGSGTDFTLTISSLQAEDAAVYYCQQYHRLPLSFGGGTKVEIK

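Phage display of a naive human antibody library on the peptide gave the parent. The variants were designed computationally from a first round of random CDR variants and then made and measured. Group labels follow the data file (Rand: our label for a block that the file lists under HC and that is probably the random mutants of the ten best first-round binders; En: ensemble of fine-tuned language models; HC: hill climbing; Gen: genetic algorithm; Gibbs: Gibbs sampling; a sequence that several methods proposed may carry one label only). In AlphaSeq, yeast of one mating type display the scFv and yeast of the other type display the target. Mating (16 h, 30 °C) was followed by selection of diploids and sequencing of their barcodes. Each replicate has its own calibration line, from reference interactions of the BCL2 family. There are six technical replicates.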

The parent's heavy chain CDRs are GFTLNSYGIS, VIYSDGRRTFYGDSVK, GRAAGTFDS; each variant's own CDRs replace them letter for letter. Variants here have more than six changes. Kd is apparent (estimated from mating counts) and averaged on the log scale over replicates with a signal. Smaller is tighter. "no signal" means that the variant was in the library but no mating with the target was seen in any replicate; the authors take this as a sign of poor binding, and no number exists. The parent sequence was in this pool as ten entries: three were never detected, three once, and four in most replicates, with averages from 2.2 nM to 240 nM.

With GFDLNEYGIS | VIYADGMRTFYADSVK | GNQAGTFDQ [En_HC] the result was 330 pM (6 of 6 replicates).
With GMALDEYGIS | VIYADGMRTFYSNTVK | GEDGVFYDQ [En_Gibbs] the result was no signal (0 of 6 replicates).
With GFDLNEYGIS | VIYADGMRTAYIDSVK | GEIAGTFDV [En_HC] the result was 430 pM (6 of 6 replicates).
With GFDLNEYGIS | VIYADGRRTAYADSVK | GEAGGTFDS [En_HC] the result was 950 pM (6 of 6 replicates).
With GFDLNEYGIS | VIYADGRRTAYSDSVK | GNVAGTFDL [En_Gen] the result was 320 pM (6 of 6 replicates).
With GFDLDEYGIS | VIYADGKRTAYADDVK | GNNAGTFDV [En_Gen] the result was 900 pM (6 of 6 replicates).
With GFDLEEYGIS | VIYADGERVNYTEAVK | GEFSGVKMD [En_Gibbs] the result was no signal (0 of 6 replicates).
With GFNLDEYGIS | VIYADGSRTAYADSVK | GNVAGTFDV [En_Gen] the result was 420 pM (6 of 6 replicates).
With GFDLNEYGIS | VIYADGRRTAYIDSVK | GNTAGTFDQ [En_HC] the result was 240 pM (6 of 6 replicates).
With GFDLNEYGIS | VIYADGRRTFYADSVK | GEAAGTFFQ [En_HC] the result was no signal (0 of 6 replicates).
With GFDLNEYGIS | VIYADGRRTFYTDSVK | GEVAGTFDA [En_HC] the result was 470 pM (5 of 6 replicates).
With GFDLNEYGIS | VIYADGRRTAYTDSVK | GNVAGTFDV [En_Gen] the result was 300 pM (6 of 6 replicates).
With GFDLNEYGIS | VIYADGMRTAYSDNVK | GNVAGTFDM [En_Gen] the result was 1.9 nM (6 of 6 replicates).
With GFDLNEYGIS | VIYADGMRKAYADSVK | GGNAGTFDV [En_Gen] the result was 60 pM (6 of 6 replicates).
With GFDLNEYGIS | VIYADGSRTFYADSVK | GENAGTFDV [En_Gen] the result was 300 pM (6 of 6 replicates).
With GFPLEEYGIS | VIYADGKRTFYIDAVK | GTWGVFGLG [En_Gibbs] the result was 1.6 µM (1 of 6 replicates).
With GFDLNEYGIS | VIYADGRRTAYGDSVK | GEVAGTFDQ [En_HC] the result was 250 pM (6 of 6 replicates).
With GFNLNEYGIS | VIYADGHRSAYVSNVK | GHLGGHFSM [En_Gibbs] the result was no signal (0 of 6 replicates).
With GFDLNEYGIS | VIYADGRRTFYADSVK | GNAAGTFTL [En_HC] the result was 910 pM (6 of 6 replicates).
With GFDLNEYGIS | VIYADGKRTAYIDSVK | GEVAGTFDQ [En_Gen] the result was 480 pM (6 of 6 replicates).
With GFDLQDYGIS | VIYADGVRTQYVNNVK | GKWGATILV [En_Gibbs] the result was no signal (0 of 6 replicates).
With GFDLNEYGIS | VIYADGMRTAYSDSVK | GSNAGTFDT [En_Gen] the result was 37 pM (6 of 6 replicates).
With GFDLNEYGIS | VIYADGQRTFYADSVK | GNVAGTFDS [En_HC] the result was 460 pM (6 of 6 replicates).
With GFDLDEYGIS | VIYADGMRTAYADNVK | GQTAGTFDV [En_Gen] the result was 300 pM (6 of 6 replicates).
With GFQLDEFGIS | VIYADGVRSSYVDDVK | GEGTGAFSV [En_Gibbs] the result was no signal (0 of 6 replicates).
With GFDLNEYGIS | VIYADGVRTFYADSVK | GNVAGTFFS [En_HC] the result was 620 pM (6 of 6 replicates).
With GFDLQEYGIS | VIYADGNRYAYTNSVK | GTQAGSLIV [En_Gibbs] the result was no signal (0 of 6 replicates).
With GFDLNEYGIS | VIYADGMRTAYADTVK | GNTAGTFDV [En_Gen] the result was 370 pM (6 of 6 replicates).
With GFDLNEQGIS | VIYADGVRTEYQNQVK | GQIDGSFTF [En_Gibbs] the result was no signal (0 of 6 replicates).
With GFVLNCYGIS | VIYQDGRRTIYGDSVK | ERAALTFIS [Rand] the result was no signal (0 of 6 replicates).
With GFDLDEYGIS | VIYADGQRKAYADSVK | GENAGTFDV [En_Gen] the result was 350 pM (6 of 6 replicates).
With GFDLNEYGIS | VIYADGRRTAYSDSVK | GENAGTFVQ [En_HC] the result was 21 nM (2 of 6 replicates).
With GFDLNEYGIS | VIYADGMRTAYVDDVK | GNVAGTFDQ [En_Gen] the result was 24 nM (5 of 6 replicates).
With GHDINEYGIS | VIYADGKRSQYAQDVK | GQNQGQGTT [En_Gibbs] the result was no signal (0 of 6 replicates).
With GFDINEMGIS | VIYADGQRLAYAQEVK | GENTGTFTE [En_Gibbs] the result was 73 nM (1 of 6 replicates).
With GFDLEDYGIS | VIYADGMRTAYADSVK | GEVAGTFDL [En_Gen] the result was 910 pM (6 of 6 replicates).
With GFDLEDYGIS | VIYADGKRTAYAQKFK | GRIGGTFVD [En_Gibbs] the result was 5.3 nM (6 of 6 replicates).
With GFNLDEYGIS | VIYADGKRTAYADSVK | GEVAGTFDI [En_Gen] the result was 300 pM (6 of 6 replicates).
With GFDLDEYGIS | VIYADGKRTAYVDSVK | GEVAGTFDV [En_Gen] the result was 440 pM (6 of 6 replicates).
With GFDLDEYGIS | VIYADGRRTFYADSVK | GQNAGTFTS [En_HC] the result was 740 pM (6 of 6 replicates).
With GFDLDEYGIS | VIYADGKRTSYQADVK | GVQVGNALV [En_Gibbs] the result was no signal (0 of 6 replicates).
With GFDLNEYGIS | VIYADGRRTFYADSVK | GEVAGTFDI [En_HC] the result was 750 pM (6 of 6 replicates).
With GFDLNEYGIS | VIYADGRRTMYTDSVK | GANAGTFDQ [En_HC] the result was 2.4 nM (6 of 6 replicates).
With GFDLNEYGIS | VIYADGKRTFYADSVK | GNQAGTFDI [En_Gen] the result was 380 pM (6 of 6 replicates).
With GFDLNEYGIS | VIYADGMRTFYSDSVK | GEVAGTFDL [En_Gen] the result was 410 pM (6 of 6 replicates).
With GFSLDEYGIS | VIYADGHRSFYLDSVK | GIYGNGLWF [En_Gibbs] the result was no signal (0 of 6 replicates).
With GNSLDEYGIS | VIYADGMRTAYTDAVK | GVGSNTLVD [En_Gibbs] the result was no signal (0 of 6 replicates).
With AFNLEDYGIS | VIYADGVRASYVESVK | GGIAGTFVI [En_Gibbs] the result was 1.9 nM (6 of 6 replicates).
With GFSLEEYGIS | VIYADGKRTFYTNAVK | GTWGVFGLG [En_Gibbs] the result was no signal (0 of 6 replicates).
With GFDLNEYGIS | VIYADGRRTFYADSVK | GNNAGTFDM [En_HC] the result was 460 pM (6 of 6 replicates).
With GFDLNEYGIS | VIYADGMRQAYADSVK | GENAGTFDI [En_Gen] the result was 71 pM (6 of 6 replicates).

The first 7 entries again:

CDR-H1	CDR-H2	CDR-H3	group	apparent Kd	detected
GFDLNEYGIS	VIYADGMRTFYADSVK	GNQAGTFDQ	En_HC	330 pM	6/6
GMALDEYGIS	VIYADGMRTFYSNTVK	GEDGVFYDQ	En_Gibbs	no signal	0/6
GFDLNEYGIS	VIYADGMRTAYIDSVK	GEIAGTFDV	En_HC	430 pM	6/6
GFDLNEYGIS	VIYADGRRTAYADSVK	GEAGGTFDS	En_HC	950 pM	6/6
GFDLNEYGIS	VIYADGRRTAYSDSVK	GNVAGTFDL	En_Gen	320 pM	6/6
GFDLDEYGIS	VIYADGKRTAYADDVK	GNNAGTFDV	En_Gen	900 pM	6/6
GFDLEEYGIS	VIYADGERVNYTEAVK	GEFSGVKMD	En_Gibbs	no signal	0/6

The authors averaged sequences with at least three values out of six and counted those with two or fewer as poor binders. Empty control strains, which show no peptide, gave a signal in 1% of pairings with all heavy chain designs; the median was 120 nM and 95% of these signals were weaker than 7.0 nM. No background was subtracted. Values of this round are not directly comparable with the first-round values of the same sequences.